Measurements as given in PubChem BioAssay AID651710 (Broad Institute, 2012).
Only a part is listed here, and it is no random draw. Activity calls are given as the source filed them.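 Rule for the calls: active = every replicate showing at least 50% inhibition; inconclusive = mean inhibition at least 50% but not in every replicate; inactive = the rest.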

The chains behind the UniProt entries cited, without tags or fusion partners.
UniProt P43351, whole entry: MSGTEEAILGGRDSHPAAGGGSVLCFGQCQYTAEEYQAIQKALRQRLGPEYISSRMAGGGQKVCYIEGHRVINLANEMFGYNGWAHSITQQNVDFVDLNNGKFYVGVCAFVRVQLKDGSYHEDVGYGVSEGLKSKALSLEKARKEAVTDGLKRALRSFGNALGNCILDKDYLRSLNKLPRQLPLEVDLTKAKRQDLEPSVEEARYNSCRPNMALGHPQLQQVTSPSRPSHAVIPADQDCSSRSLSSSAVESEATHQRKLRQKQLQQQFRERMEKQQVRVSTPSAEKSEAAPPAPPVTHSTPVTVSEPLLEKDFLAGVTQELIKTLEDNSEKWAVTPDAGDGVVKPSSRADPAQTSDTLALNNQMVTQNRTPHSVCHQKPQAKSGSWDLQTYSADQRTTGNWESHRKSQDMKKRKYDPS

Biological target: DNA repair protein RAD52 homolog (Homo sapiens) (UniProt P43351)
Assay: blockers of RAD52 strand annealing activity – biochemical, FRET, single point, set 2, primary screen (AID 651710)
Settings: recombinant RAD52 DNA annealing, FRET fluorescence; at 18.7 µM; active compounds read high

Structure (SMILES)	inhibition
CCC(=O)N(c1ccccc1)C1(COC)CCN(CCc2cccs2)CC1	inactive: -0.804%
CCC(=O)N(c1ccccc1)C1(COC)CCN(CCn2nnn(CC)c2=O)CC1	inactive: -13.1%
